In the series the test system is Calu3 cells. To be noted: uninfected Calu3, 0.25 μM, 24 h.

From US20250090557A1 (priority 2020, published 2025) come the findings set out here.

With brusatol, the “cytotoxicity (XTT assay)” value is listed as “cytotoxic”.
